US8278105B2, “Induction, propagation and isolation of liver progenitor cells” (University of Southern California, priority 2008, dated 2012)

Tested on: HES2 or HES3 cells
Assay: 3i-induction of hepatocyte-like cells from human ES cells; dosages of medium components examined
Assay type: cell-based
Conditions: in combination of SU5402, PD184352 and CHIR99021
Description: HES2 or 3 cells were cultured for 5 days on MEF-feeders with 20% FCS hES medium in organ culture dishes. 20% FCS hES medium was replaced with 3i medium and cells were keeping culture in this medium for 3 days. Cells were detached as clumps by collagenase and feeder cells were removed by sedimentation in DMEM/F-12 medium.
Cells were seeded on MATRIGEL® (secreted gelatinous protein mixture) coated organ culture dish as 1 to 1 split and culture with 3i medium. After 3 to 5 days in culture, hepatoblast-like cells appeared. They were subsequently propagated using 3i or Kubota's medium following enzymatic dissection.
Organ culture dishes seeded with Mouse embryo fibroblast feeder cells Human embryonic stem cell medium containing 20% fetal calf serum (2) 3i* or new 3i** medium • Neuro basal medium 50% • DMEM/F-12 50% • N2 supplement 1/200 v/v • B27 supplement 1/100 v/v • 100 mM L-glutamine 1/100 v/v • 0.1M β-ME 1/1000 v/v • *SU5402 (FGFR inhibitor) 2 μM • *P0184352 (ERK cascade inhibitor) 0.8 μM • **PD0325901 (MAPK inhibitor) 0.4 μM • CHIR99021 (GSK3 inhibitor) 3 μM • **Dorsomorphin (BMP cascade inhibitor) 2 μM
HES2 or 3 cells were cultured 5 days on MEF-feeders with 20% FCS hES medium in organ culture dishes. 20% FCS hES medium was replaced with 3i medium and cells were maintained in this medium for 2 days.
Cells were detached as clumps by collagenase and feeder cells were removed by sedimentation in DMEM/F-12 medium.
Cells were seeded on MATRIGELO® (secreted gelatinous protein mixture) coated organ culture dish as 1 to 1 split and culture with 3i medium.
After 3 to 5 day culture, the hepatocyte-like cells appeared.

For Cc1c[nH]c(-c2cnc(NCCNc3ccc(C#N)cn3)nc2-c2ccc(Cl)cc2Cl)n1 [CHIR99021], the “effect on hepatic differentiation/growth” value (CHIR99021 1.5 μM) was “dramatically decreased hepatic differentiation/growth”, the “effect on hepatic differentiation/growth” value (CHIR99021 3 μM) was “most efficient” and the “effect on hepatic differentiation/growth” value (CHIR99021 6 μM) was “some kind of non-hepatic cells grow very well”.
